# Data: patent EP1243590A2, “Nucleotide analog composition and synthesis method” (GILEAD SCIENCES, INC., priority 1997, dated 1999)
# Read-outs that look alike come from different tables or passages of the source.
substance,measurement,setting,value
9-[2-(R)-[[bis[[(isopropoxycarbonyl)oxy]methoxy] phosphinoyl]methoxy]propyl]-adenine•fumaric acid (1:1) [BPPF],solubility,0.1 n hcl,15 to 100 mg/mL
same,solubility,acetone,15 to 100 mg/mL
same,solubility,acetonitrile,3 to 15 mg/mL
same,solubility,"deionized water, pH 3.3",3 to 15 mg/mL
same,solubility,dimethylformamide,428 mg/mL
same,solubility,ethanol,15 to 100 mg/mL
same,solubility,isopropanol,15 to 100 mg/mL
same,solubility,isopropyl acetate,3 to 15 mg/mL
same,solubility,isopropyl acetate:water (1:1 v/v),15 to 100 mg/mL
same,solubility,methanol,15 to 100 mg/mL
